The list shows a part of the results, in another mix than the full data. Some salts and complexes are drawn in separate pieces, as the source files them; their charges need not balance. The source made the active and inactive calls.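 Rule for the calls: active = mean replicate inhibition at least 60% with every replicate also reaching 60%; inconclusive = only one of the two criteria is met; inactive = mean below 60% and not all replicates reaching 60%.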
Assay: PAX8 transcriptional activity inhibition in RMG-I – RMG-I cells, luciferase, single concentration, primary screen (AID 652154);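 note: luciferase light reporting Pax8 driven TPO promoter activity; plate controls were median of neutral control wells for no effect and mitoxantrone controls for full effect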
Conditions: RMG-I TPO-luciferase reporter, SteadyGlo, 24 h; at 12.6 µM; active compounds read high

Row | Compound | inhibition
1 | Nc1ccc2c(ccc3cccnc32)n1.O=[N+]([O-])c1cc([N+](=O)[O-])c(O)c([N+](=O)[O-])c1 | inactive: -9.12%
2 | CCOC(=O)c1ccc(NP(C)(=O)Oc2ccc(Cl)cc2)cc1 (stereo unspecified) | active: 129%
3 | COc1ccccc1OP(C)(=O)Nc1ccccc1Br (stereo unspecified) | inactive: -1.17%
4 | CN(C)C(=O)c1c([N+](=O)[O-])cc([N+](=O)[O-])cc1[N+](=O)[O-] | inactive: -17.5%
5 | COc1ccc(OP(C)(=O)Nc2ccc(Br)cc2)cc1 (stereo unspecified) | inactive: 8.39%
6 | CCN(CC)CC(O)COC(=O)C(O)(c1ccccc1)C1CCCCC1 (stereo unspecified) | inactive: 18.2%
7 | CCc1ccc(OP(C)(=O)Nc2cccnc2)cc1 (stereo unspecified) | inactive: 8.15%
8 | O=C(OCCCN1CCCC1)C(O)(c1ccccc1)C1CCCCC1 (stereo unspecified) | inactive: -16.2%
9 | COc1ccccc1OP(C)(=O)Nc1c(C)n(C)n(-c2ccccc2)c1=O (stereo unspecified) | inactive: 4.02%
10 | O=[N+]([O-])c1cc([N+](=O)[O-])c(Nc2ccccn2)c([N+](=O)[O-])c1 | inactive: 47%
11 | Cc1c(NP(C)(=O)Oc2ccc(C(C)C)cc2)c(=O)n(-c2ccccc2)n1C (stereo unspecified) | inactive: 2.36%
12 | COc1ccccc1OP(C)(=O)Nc1ccc(C)cc1C (stereo unspecified) | inactive: 15.3%
13 | COc1ccccc1OP(C)(=O)Nc1ccc(Br)cc1 (stereo unspecified) | inactive: 16.9%
14 | CP(=O)(OCCOc1ccccc1)OCCOc1ccccc1 | inactive: -4.08%
15 | CCCCCCCCCCCCCCCC1C[N+](C)(C)CCOP(C)(=O)O1 (stereo unspecified) | active: 115%
16 | CP(=O)(Nc1ccc(Cl)cc1Cl)Oc1ccccc1 (stereo unspecified) | inactive: 9.43%
17 | Cc1cc(C)cc(OP(C)(=O)Nc2cccc(C(F)(F)F)c2)c1 (stereo unspecified) | inactive: 2.47%
18 | O=C1C(O)=C([N+](=O)[O-])C(=O)C(O)=C1[N+](=O)[O-] | inactive: -4.86%
19 | COc1ccc(OP(C)(=O)Nc2ccccc2Br)cc1 (stereo unspecified) | inactive: 10.3%
20 | Cc1c([N+](=O)[O-])cc([N+](=O)[O-])c(Br)c1[N+](=O)[O-] | inactive: 4.08%
21 | CCCCCOc1ccc(NP(C)(=O)Oc2ccc(Cl)cc2Cl)cc1 (stereo unspecified) | inactive: -8.97%
22 | O=[N+]([O-])c1cc([N+](=O)[O-])c(OC2CCCCC2O)c([N+](=O)[O-])c1 (stereo unspecified) | inactive: -14.5%
23 | CCN(CC)CCCNc1ccccc1[N+](=O)[O-].O=[N+]([O-])c1cc([N+](=O)[O-])c(O)c([N+](=O)[O-])c1 | inactive: -35%
24 | COc1ccc(OP(C)(=O)Nc2ccc(SC(F)(F)F)cc2)cc1 (stereo unspecified) | inactive: 40%
25 | CCOC(=O)c1ccc(NP(C)(=O)Oc2ccc(F)cc2)cc1 (stereo unspecified) | inactive: -9.52%
26 | O=C(OCCN1CCN(CCOCc2ccccc2)CC1)C(O)(c1ccccc1)c1ccccc1 | inactive: -2.86%

Row | Compound | inhibition
27 | O=C(OC1CN2CCC1CC2)c1ccc([N+](=O)[O-])cc1 (stereo unspecified) | inactive: 6.19%
28 | COc1ccc2c(c1O)-c1c(O)c(OC)cc3c1[C@H](C2)[N+](C)(C)CC3.O=[N+]([O-])c1cc([N+](=O)[O-])c([O-])c([N+](=O)[O-])c1[O-] | inactive: -22.8%
29 | O=[N+]([O-])c1cc([N+](=O)[O-])c(Nc2ccc(Cl)cc2)c([N+](=O)[O-])c1 | active: 93%
30 | CC(C)c1ccc(OP(C)(=O)Nc2ccc(SC(F)(F)F)cc2)cc1 (stereo unspecified) | inactive: 18.4%
31 | O=[N+]([O-])c1cc([N+](=O)[O-])c(C(F)(F)F)c([N+](=O)[O-])c1O | inactive: -5.5%
32 | CP(=O)(Nc1ccc(SC(F)(F)F)cc1)Oc1ccc(F)cc1 (stereo unspecified) | inactive: 0.176%
33 | CCOP(C)(=S)SCC(=O)NC(C)(CC)C(=O)O (stereo unspecified) | inactive: 1.73%
34 | Cc1cc(-c2cccc3ccccc23)c(C)cn1.O=[N+]([O-])c1cc([N+](=O)[O-])c(O)c([N+](=O)[O-])c1 | inactive: 8.08%
35 | O=[N+]([O-])c1cc([N+](=O)[O-])c(NCC2CCS(=O)(=O)C2)c([N+](=O)[O-])c1 (stereo unspecified) | active: 91.6%
36 | O=[N+]([O-])c1ccc(OP2(=O)COCCO2)cc1 (stereo unspecified) | inactive: 14.1%
37 | Cc1c(C(c2ccc3c(c2)OCO3)c2c(C)n(C)n(-c3ccccc3)c2=O)c(=O)n(-c2ccccc2)n1C.O=[N+]([O-])c1cc([N+](=O)[O-])c(O)c([N+](=O)[O-])c1 | inactive: -7.44%
38 | COc1ccc(OP(C)(=O)Nc2cccc(Br)c2)cc1 (stereo unspecified) | inactive: 5.11%
39 | COc1ccc(NP(C)(=O)Oc2ccccc2OC)cc1 (stereo unspecified) | inactive: 28.6%
40 | COc1ccccc1OP(C)(=O)Nc1c(C)cccc1C (stereo unspecified) | inactive: 6.57%
41 | CN1CCCCC1COC(=O)C1(O)c2ccccc2CCc2ccccc21 (stereo unspecified) | inactive: -0.9%
42 | CP(=O)(Nc1ccc(SC(F)(F)F)cc1)Oc1ccccc1 (stereo unspecified) | inactive: -1.14%
43 | CCCOc1ccc(NP(C)(=O)Oc2ccc(Cl)cc2)cc1 (stereo unspecified) | inactive: -19.9%
44 | COc1ccc(-c2ccccn2)cc1.O=[N+]([O-])c1cc([N+](=O)[O-])c(O)c([N+](=O)[O-])c1 | inactive: -119%
45 | CCOC(=O)C(CC)C1=NC(C)(C)Cc2ccccc21.O=[N+]([O-])c1cc([N+](=O)[O-])c(O)c([N+](=O)[O-])c1 (stereo unspecified) | inactive: 4.59%
46 | O=[N+]([O-])c1cc([N+](=O)[O-])c(Nc2nnnn2CCO)c([N+](=O)[O-])c1 | inactive: -0.562%
47 | O=[N+]([O-])c1cc([N+](=O)[O-])c(-c2cnn(-c3ccccc3)c2)c([N+](=O)[O-])c1 | inactive: 4.46%
48 | Cc1nc2ccc3ccccc3c2s1.O=[N+]([O-])c1cc([N+](=O)[O-])c(O)c([N+](=O)[O-])c1 | inactive: -58.6%
49 | O=[N+]([O-])c1cc([N+](=O)[O-])c(-n2nnc3ccccc32)c([N+](=O)[O-])c1 | inactive: -51.2%
50 | CN(Cc1cccnc1)C(=O)COc1ccc(Cl)c(Cl)c1.O=[N+]([O-])c1cc([N+](=O)[O-])c(O)c([N+](=O)[O-])c1 | inactive: -3.9%
51 | CP(=O)(Nc1cccc(Br)c1)Oc1ccccc1 (stereo unspecified) | inactive: 24%
